The text below walks through data of PubChem BioAssay AID748 (Sanford-Burnham Center for Chemical Genomics, 2007).

The entries are a selection whose mix differs from that of the whole data set. Potency and affinity values are given separately. Calls of active or inactive are those of the source.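 Rule for the calls: active = displacement above 50% at 20 µM plus a fluorescence interference ratio under 1.5; inactive = the rest.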

In the test the target is Bcl-2-like protein 10 (Homo sapiens) (UniProt Q9HD36). As to the kind of experiment: Bcl-B/TR3 peptide binding disruption – biochemical, fluorescence polarization, FITC-TR3 peptide, selectivity assay for Bfl-1 inhibitor project, primary screen (AID 748).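 Note: plate controls were wells without compound for no effect and wells lacking Bcl-B protein for full effect.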 The note with it: FP displacement of FITC-TR3 peptide from Bcl-B; at 20 µM; stronger effect = higher value. On the technique in general: Fluorescence polarisation rises when a labelled molecule tumbles more slowly, as on binding a larger partner.
As for `CP(=S)(Nn1cnnc1)Oc1ccccc1` (configuration not stated), the displacement was inactive: 1.8%.

For `CP(=O)(Nc1ccccn1)Oc1ccc(Cl)cc1` (configuration not stated), the displacement is inactive: -2.3%.

Regarding `CCOP(C)(=S)SCC(=O)NC(C)C(=O)O` (configuration not stated), the displacement is inactive: -4.2%.

On to `CP(=O)(NC(=O)Nc1ccccc1)Oc1ccccc1` (configuration not stated), for which the displacement was inactive: 10.5%.

Consider `COc1ccc(OP(C)(=O)Nc2cccc(F)c2)cc1` (configuration not stated), for which the displacement was inactive: -12.4%.

With `COc1ccccc1OP(C)(=O)Nc1ccc(C)cc1` (configuration not stated), the displacement is inactive: -1.2%.

Regarding `Cc1ccc(NP(C)(=O)Oc2ccccc2)c(C)c1` (configuration not stated), the displacement was inactive: -1.5%.

On to `Cc1cc(C)cc(OP(C)(=O)Nc2ccccn2)c1` (configuration not stated), for which the displacement is inactive: -3.8%.

Take `Cc1ccc(C)c(NP(C)(=O)Oc2ccccc2)c1` (configuration not stated): the displacement is inactive: -7.1%.

`Cc1cc(C)cc(OP(C)(=O)Nc2ccc(C)cc2C)c1` (configuration not stated): the displacement was inactive: -16.2%.

With `Cc1nc2ccc3ccccc3c2s1.O=[N+]([O-])c1cc([N+](=O)[O-])c(O)c([N+](=O)[O-])c1`, the displacement was inactive: -7.2%.

`COc1ccccc1OP(C)(=O)Nc1c(C)cccc1C` (configuration not stated): the displacement is inactive: -6.6%.

As to `CN(C)CCOC(=O)C(O)(c1ccccc1)C1CCCCC1` (configuration not stated), the displacement was inactive: 3.8%.

For the compound `COc1ccc(OP(C)(=O)Nc2cccc(Br)c2)cc1` (configuration not stated), the displacement was inactive: -9.9%.

As to `Cc1ccccc1NP(C)(=O)Nc1ccccc1C`, the displacement was inactive: -0.4%.

For `CCOP(C)(=S)SCC(=O)NC(C)(CC)C(=O)O` (configuration not stated), the displacement was inactive: -0.8%.

On to `CP(=O)(Nc1ccccc1F)Oc1ccccc1` (configuration not stated), for which the displacement is inactive: -0.9%.

Take `CP(=O)(Nc1ccccc1)Oc1ccc(F)cc1` (configuration not stated): the displacement is inactive: 2%.

On to `Cc1nc2ccc3ccccc3c2o1.O=[N+]([O-])c1cc([N+](=O)[O-])c(O)c([N+](=O)[O-])c1`, for which the displacement was inactive: -1.6%.

With `COc1ccccc1OP(C)(=O)Nc1ccc(C)c(C)c1` (configuration not stated), the displacement is inactive: 9.9%.

With `CCc1ccc(OP(C)(=O)O)cc1`, the displacement is inactive: -9.8%.

As for `CP(=O)(Nc1ccccn1)Oc1ccccc1` (configuration not stated), the displacement was inactive: -5.4%.

In the case of `COc1ccccc1OP(C)(=O)Nc1ccc(C)cc1C` (configuration not stated), the displacement is inactive: -8.7%.

For the compound `Cc1c(NP(C)(=O)Oc2ccc(C(C)C)cc2)c(=O)n(-c2ccccc2)n1C` (configuration not stated), the displacement is inactive: 0.8%.

For the compound `CN(C)CCOC(=O)C(O)(c1ccccc1)C1CCCC1` (configuration not stated), the displacement was inactive: 0.2%.

`COc1ccc(OP(C)(=O)Nc2ccccn2)cc1` (configuration not stated): the displacement is inactive: -0.6%.

For `CP(=O)(Nc1ccc(Cl)cc1)Oc1ccc(F)cc1` (configuration not stated), the displacement is inactive: -7%.

Turning to `CC(C)(C)c1ccc(OP(C)(=O)O)cc1`, the displacement was inactive: 2.6%.

As to `CP(=O)(Oc1ccccc1)N1CCOC1=O` (configuration not stated), the displacement is inactive: 0.1%.

Consider `COc1ccccc1OP(C)(=O)Nc1c(C)n(C)n(-c2ccccc2)c1=O` (configuration not stated), for which the displacement is inactive: -3.2%.

In the case of `CCN(CC)CC(O)COC(=O)C(O)(c1ccccc1)C1CCCCC1` (configuration not stated), the displacement is inactive: -7.5%.

For the compound `CP(=O)(OC12CC3CC(CC(C3)C1)C2)OC12CC3CC(CC(C3)C1)C2`, the displacement was inactive: -3%.
